# In patent US11123341B2, “Butyrylcholinesterase inhibitors for treatment of opioid use disorder” (priority 2019, dated 2021):
# By UniProt entry, the sequences of proteins in these tests, tags left out. Residues count along the entry.
# UniProt P06276, 29-602 limits assumed: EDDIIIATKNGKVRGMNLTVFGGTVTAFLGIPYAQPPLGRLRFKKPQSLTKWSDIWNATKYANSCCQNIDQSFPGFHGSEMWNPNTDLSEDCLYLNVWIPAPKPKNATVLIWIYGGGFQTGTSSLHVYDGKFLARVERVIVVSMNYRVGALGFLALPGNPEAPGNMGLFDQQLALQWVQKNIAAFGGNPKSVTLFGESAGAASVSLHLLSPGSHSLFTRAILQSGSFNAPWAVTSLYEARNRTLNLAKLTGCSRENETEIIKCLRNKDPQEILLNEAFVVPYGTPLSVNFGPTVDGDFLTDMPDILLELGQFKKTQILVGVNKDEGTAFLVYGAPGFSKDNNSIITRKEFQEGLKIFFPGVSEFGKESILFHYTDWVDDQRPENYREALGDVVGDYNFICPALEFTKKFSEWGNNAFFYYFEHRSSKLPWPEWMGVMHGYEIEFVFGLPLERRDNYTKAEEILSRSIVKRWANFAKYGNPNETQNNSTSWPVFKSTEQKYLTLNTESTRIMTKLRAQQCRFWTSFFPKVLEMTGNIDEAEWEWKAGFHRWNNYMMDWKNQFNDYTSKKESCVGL
# UniProt P35372, whole entry, looked up: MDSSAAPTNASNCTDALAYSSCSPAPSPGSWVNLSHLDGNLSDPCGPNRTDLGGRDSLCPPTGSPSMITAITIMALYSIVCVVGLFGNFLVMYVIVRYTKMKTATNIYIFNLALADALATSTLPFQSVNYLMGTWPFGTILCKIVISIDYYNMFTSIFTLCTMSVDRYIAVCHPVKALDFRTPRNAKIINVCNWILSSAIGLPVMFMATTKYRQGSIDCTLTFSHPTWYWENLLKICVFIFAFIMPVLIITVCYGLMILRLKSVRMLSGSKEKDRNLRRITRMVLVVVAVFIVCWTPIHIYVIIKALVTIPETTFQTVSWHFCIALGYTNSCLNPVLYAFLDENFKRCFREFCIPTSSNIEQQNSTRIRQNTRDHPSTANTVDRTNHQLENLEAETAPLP
# Assays:
# BChE = BChE (Homo sapiens, UniProt P06276); assay: Michaelis-Menten kinetic analysis of BChE-catalyzed hydrolysis of heroin (in vitro enzyme activity assay, RP-HPLC)
# [1] = heroin versus morphine; cited from earlier work
# [2] = pharmacokinetic model, cited from earlier work
# μ-opiate receptors = μ-opiate receptors (Homo sapiens, UniProt P35372); conditions: qualitative comparison among heroin, 6-MAM and morphine; cited from earlier work
compound,measurement,setting,value
CC(=O)C1(O)CC=C2C[C@@H]3[C@@H]4C=C[C@@](O)(C(C)=O)[C@@H]5OC1=C2[C@@]54CCN3C (stereo partly drawn),kcat for BChE-catalyzed hydrolysis of heroin,"BChE; 0.1 M phosphate buffer pH 7.4, 37° C., triplicate",30.67 s⁻¹
same,Km,"BChE; read-out: KM for BChE-catalyzed hydrolysis of heroin, 0.1 M phosphate buffer pH 7.4, 37° C., triplicate",120 µM
same,toxicity relative to morphine,[1],at least 10 fold
same,rate constant for heroin hydrolysis to 6-MAM,[2]; in blood/plasma,12.092 min⁻¹
same,rate constant for direct heroin elimination,[2],13.757 min⁻¹
same,binding affinity with the μ-opiate receptors,μ-opiate receptors,significantly lower than that of morphine
